Test results reported in US20250346599A1, “TRICYCLIC PHTHALAZINONE PARP INHIBITORS AND METHODS OF USE” (Valo Health, Inc., priority 2022, published 2025).

Protein sequences, listed by entry. Tags and fused reporters are not part of them.
UniProt P09874, whole entry: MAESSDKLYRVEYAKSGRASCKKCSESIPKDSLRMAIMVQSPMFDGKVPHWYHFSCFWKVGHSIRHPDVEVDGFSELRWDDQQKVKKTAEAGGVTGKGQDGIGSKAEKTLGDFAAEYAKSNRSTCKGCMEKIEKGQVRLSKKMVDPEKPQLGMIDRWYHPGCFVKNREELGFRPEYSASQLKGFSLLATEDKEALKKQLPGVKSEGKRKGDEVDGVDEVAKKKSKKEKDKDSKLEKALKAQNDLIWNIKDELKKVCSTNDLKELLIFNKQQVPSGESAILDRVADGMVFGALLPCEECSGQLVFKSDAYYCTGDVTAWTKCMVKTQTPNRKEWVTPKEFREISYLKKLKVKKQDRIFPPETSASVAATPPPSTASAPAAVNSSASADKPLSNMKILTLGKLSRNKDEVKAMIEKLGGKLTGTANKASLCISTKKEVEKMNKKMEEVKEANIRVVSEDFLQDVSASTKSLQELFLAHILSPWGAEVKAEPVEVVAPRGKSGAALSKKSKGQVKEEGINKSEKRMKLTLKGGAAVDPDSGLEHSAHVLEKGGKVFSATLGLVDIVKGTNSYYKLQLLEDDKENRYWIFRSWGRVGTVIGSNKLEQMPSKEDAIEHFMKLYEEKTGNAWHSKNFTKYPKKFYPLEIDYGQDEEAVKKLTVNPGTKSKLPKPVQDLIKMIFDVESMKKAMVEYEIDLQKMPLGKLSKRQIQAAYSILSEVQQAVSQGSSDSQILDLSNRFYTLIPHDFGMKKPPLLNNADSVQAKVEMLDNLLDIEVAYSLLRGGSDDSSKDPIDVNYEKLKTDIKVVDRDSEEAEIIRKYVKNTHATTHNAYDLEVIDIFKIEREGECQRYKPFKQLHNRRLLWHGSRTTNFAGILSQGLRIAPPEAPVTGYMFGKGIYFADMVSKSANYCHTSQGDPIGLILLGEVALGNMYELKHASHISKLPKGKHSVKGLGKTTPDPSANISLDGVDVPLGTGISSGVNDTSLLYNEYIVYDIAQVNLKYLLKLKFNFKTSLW
UniProt P08183, whole entry: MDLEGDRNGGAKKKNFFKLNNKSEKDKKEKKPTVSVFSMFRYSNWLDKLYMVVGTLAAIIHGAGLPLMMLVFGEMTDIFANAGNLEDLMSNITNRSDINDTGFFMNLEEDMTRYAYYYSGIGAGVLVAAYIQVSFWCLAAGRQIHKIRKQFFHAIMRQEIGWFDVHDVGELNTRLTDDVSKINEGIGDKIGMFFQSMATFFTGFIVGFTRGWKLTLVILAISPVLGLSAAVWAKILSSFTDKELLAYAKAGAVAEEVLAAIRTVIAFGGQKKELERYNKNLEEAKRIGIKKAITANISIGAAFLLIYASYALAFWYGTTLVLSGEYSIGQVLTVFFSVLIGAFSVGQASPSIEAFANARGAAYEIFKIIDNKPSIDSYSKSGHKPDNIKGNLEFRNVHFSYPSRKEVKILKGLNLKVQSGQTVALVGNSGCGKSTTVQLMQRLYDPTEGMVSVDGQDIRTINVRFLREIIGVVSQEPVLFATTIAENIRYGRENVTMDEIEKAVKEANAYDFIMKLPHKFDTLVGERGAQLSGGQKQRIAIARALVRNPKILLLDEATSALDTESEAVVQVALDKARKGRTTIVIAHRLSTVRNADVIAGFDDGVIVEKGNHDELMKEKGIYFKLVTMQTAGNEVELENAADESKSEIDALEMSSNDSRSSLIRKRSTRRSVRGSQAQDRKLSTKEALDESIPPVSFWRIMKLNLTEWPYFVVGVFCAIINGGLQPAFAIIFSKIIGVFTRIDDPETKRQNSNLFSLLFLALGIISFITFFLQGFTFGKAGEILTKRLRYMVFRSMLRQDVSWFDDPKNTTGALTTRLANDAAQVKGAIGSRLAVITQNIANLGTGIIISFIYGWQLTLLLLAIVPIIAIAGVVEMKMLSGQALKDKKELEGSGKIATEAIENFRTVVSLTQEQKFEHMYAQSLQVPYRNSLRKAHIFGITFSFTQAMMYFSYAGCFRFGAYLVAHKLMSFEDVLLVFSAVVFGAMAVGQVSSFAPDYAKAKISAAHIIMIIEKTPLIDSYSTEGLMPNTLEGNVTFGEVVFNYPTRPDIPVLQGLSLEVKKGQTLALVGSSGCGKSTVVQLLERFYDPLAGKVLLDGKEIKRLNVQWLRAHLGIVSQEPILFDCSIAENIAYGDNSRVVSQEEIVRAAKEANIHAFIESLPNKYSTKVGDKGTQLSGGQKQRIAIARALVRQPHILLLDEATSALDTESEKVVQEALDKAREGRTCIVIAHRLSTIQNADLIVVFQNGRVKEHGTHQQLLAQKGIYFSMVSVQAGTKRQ

What was measured:
PARP1 enzyme = PARP1 enzyme (Homo sapiens (Human), UniProt P09874); assay: PARP Mass Spectroscopy Assay (PARP1 enzymatic assay, nicotinamide detection); conditions: read-out: PARP1 IC50; 5 nM PARP1, 5 uM β-NAD, 60 min at RT, NAM by mass spectrometry
Source text: Materials and Reagents: The PARP1 enzyme was purchased from BPS Bioscience (cat #80501). Tris-HCl, pH 8.0 was purchased from Corning (cat #46-031-CM). Magnesium chloride was purchased from Thermo Fisher Scientific (previously Honeywell Fluka, cat #63020-1L). All other assay components, activated DNA (cat #D4522), core histones (cat #SRP6590), β-Nicotinamide adenine dinucleotide (β-NAD—cat #N8285), 3ABA PARP1 small molecule inhibitor (from the PARP1 Enzyme Activity Assay kit, cat #17-10149), Sodium Chloride (NaCl, cat #56546-1L), Triton X-100 (cat #93443), Dithiothreitol (DTT, cat #43816-250 ML) were all purchased from Millipore Sigma.
Assay Buffer: The assay buffer includes the following reagents: 50 mM Tris-HCl pH 8.0, 50 mM NaCl, 10 mM, MgCl2, 0.01% Triton X-100, and 1 mM DTT.
PARP1 enzymatic assays were performed in 384-well plates in a total volume of 20 μL in the assay buffer. For concentration response curves, compounds were serially diluted 3-fold from 2 mM highest concentration […] to generate a 10-point curve, and 125 nL was transferred to the assay plate using the Echo acoustic dispenser for a final concentration range of 26.6 μM to […] in 10 μL reaction. Five microliters of 10 nM PARP1 enzyme and 100 nM core histones (2×) mix were added to the assay plates and pre-incubated for 30 mins at room temperature (RT). The reaction was initiated by the addition of a 5 μL of 10 uM β-NAD plus 0.02 mg/mL activated DNA (2×) mix. The reaction is incubated for 60 min at RT. The final concentration of the PARP1 enzyme and substrate concentrations were 5 nM and 5 uM, respectively. The positive control (high signal) and negative control (low signal) wells had 125 nL of DMSO in place of compounds. After the incubation is complete, the reaction is stopped by the addition of 10 μL of 10 uM of the 3ABA PARP1 inhibitor, incubated for 5 min at RT, and placed in the −80 C freezer for shipment to the Valo Health site in Branford Connecticut where mass spectrometry will be used to directly detect quantities of nicotinamide (NAM).
The percent inhibition of enzyme activity was calculated according to the following equation: […]
The values of Ssample, Shigh, and Slow in the equation refer to the NAM concentration detected in the assay wells, high control wells, and low control wells, respectively. To determine inhibitor IC50 values, % inhibition of the CRCs (concentration response curves) was fitted to the standard single-site four-parameter logistic equation.

[1] = target: human MDR1 (P-glycoprotein; P-gp) (Homo sapiens (Human), UniProt P08183); assay: bi-directional MDCK-MDR1 permeability assay; conditions: for MDCK-MDR1 Papp A→B (10^−6 cm/s): apical to basolateral direction; for MDCK-MDR1 ER: efflux ratio B→A/A→B
Source text: The bi-directional assay containing a Mandin Darby canine kidney (MDCK) cell line transfected with human MDR1 gene (P-glycoprotein; P-gp) designed to overexpress the MDR1 efflux transporter, a major efflux transporter at the blood brain barrier (BBB), uses an established method that measures the rate of flux of a compound across polarized cell monolayers. As well appreciated in the art, the data generated from the MDCK-MDR1 permeability assay may be used to predict in vivo absorption of drugs. The bi-directional MDCK-MDR1 permeability assay can identify and quantify levels of active efflux. Screening compounds in both the apical to basolateral direction (A→B) and basolateral to apical direction (B→A) across the cell monolayer provides a ratio of B→A/A→B (efflux ratio; “ER”). Unlike the Caco-2 assay, the MDCK-MDR1 assay is not subject to potential efflux interference by breast cancer resistance protein (BCRP). […] The data may further be used to predict blood brain barrier (BBB) permeability via calculation from the data of log(permeability-surface area product) (“log PS”), well-understood to be predictive of the in vivo log([brain concentration]/[plasma concentration]).

| Structure (SMILES) | IC50 (PARP1 enzyme) [nM] | MDCK-MDR1 Papp A→B (10^−6 cm/s) [1] | MDCK-MDR1 ER [1] |
| --- | --- | --- | --- |
| COCCN1CC[C@H]([C@@H]2Nc3cc(F)cc4c(=O)[nH]nc(c34)[C@H]2c2ccccc2Cl)C1 | 85 | – | – |
| COCCN1CC[C@H]([C@H]2Nc3cc(F)cc4c(=O)[nH]nc(c34)[C@@H]2c2ccccc2Cl)C1 | 101 | 0.751 10^−6 cm/s | 36.3 |
| C[C@@H]1Nc2cc(F)cc3c(=O)[nH]nc(c23)[C@H]1c1ccc(C#N)c(F)c1 | 9 | – | – |
| COCCN1CC[C@@H]([C@H]2Nc3cc(F)cc4c(=O)[nH]nc(c34)[C@@H]2c2ccc(F)cc2F)C1 | 80 | 0.866 10^−6 cm/s | 33.1 |
| C[C@@H]1Nc2cc(F)cc3c(=O)[nH]nc(c23)[C@H]1c1ccc(Cl)cc1F | 27 | 13.1 10^−6 cm/s | 0.541 |
| COCCN1CC[C@@H]([C@@H]2Nc3cc(F)cc4c(=O)[nH]nc(c34)[C@H]2c2ccc(F)cc2F)C1 | 1240 | – | – |

Continued, values first:

| IC50 (PARP1 enzyme) [nM] | MDCK-MDR1 Papp A→B (10^−6 cm/s) [1] | MDCK-MDR1 ER [1] | Structure (SMILES) |
| --- | --- | --- | --- |
| 3080 | – | – | COCCN1CC[C@@H]([C@@H]2Nc3cc(F)cc4c(=O)[nH]nc(c34)[C@H]2c2ccccc2Cl)C1 |
| 49 | – | – | CC(C)(C)C[C@@H]1Nc2cc(F)cc3c(=O)[nH]nc(c23)[C@H]1c1c(F)cc(F)cc1F |
| 120 | 4.46 10^−6 cm/s | 7.76 | COCCN1CC[C@H]([C@@H]2Nc3cc(F)cc4c(=O)[nH]nc(c34)[C@H]2c2ccc(F)cc2F)C1 |
| 51 | – | – | COCCN1CC[C@H]([C@H]2Nc3cc(F)cc4c(=O)[nH]nc(c34)[C@@H]2c2ccc(F)cc2F)C1 |
| 98 | – | – | O=c1[nH]nc2c3c(cc(F)cc13)N[C@H](c1c(F)cc(F)cc1F)[C@H]2C1CCNCC1 |
| 287 | – | – | COCCN1CC[C@@H]([C@H]2Nc3cc(F)cc4c(=O)[nH]nc(c34)[C@@H]2c2ccccc2Cl)C1 |
